For this experiment, the target named is GSK3B (human) (UniProt P49841). Kind of experiment: radiometric filter-binding kinase assay. As to conditions: ATP 100 µM.

The chains behind the UniProt entries cited, without tags or fusion partners. Where a name states a change or a piece, a line headed by the entry shows the natural chain unless it says otherwise.
UniProt P49841: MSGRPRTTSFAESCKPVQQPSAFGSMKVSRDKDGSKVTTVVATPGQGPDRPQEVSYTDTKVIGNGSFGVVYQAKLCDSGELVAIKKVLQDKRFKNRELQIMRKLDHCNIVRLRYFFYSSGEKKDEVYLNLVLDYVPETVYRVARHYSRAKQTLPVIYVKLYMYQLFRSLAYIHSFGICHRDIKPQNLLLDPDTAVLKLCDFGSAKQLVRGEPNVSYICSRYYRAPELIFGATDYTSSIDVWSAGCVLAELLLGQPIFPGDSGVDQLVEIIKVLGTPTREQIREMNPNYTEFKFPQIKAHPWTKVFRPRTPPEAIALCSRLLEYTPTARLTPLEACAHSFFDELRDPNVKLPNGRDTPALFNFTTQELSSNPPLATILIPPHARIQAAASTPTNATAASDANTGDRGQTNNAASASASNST

As usually defined, the IC50 is the concentration needed to halve the response being measured. Read a low IC50 as inhibition by little substance.

Compound `O=C1Nc2ccccc2/C1=C1\Nc2ccccc2\C1=N/O` returned an IC50 of 0.19 µM.
